Test results from paper PMC7024217, “Study on Structure Activity Relationship of Natural Flavonoids against Thrombin by Molecular Docking Virtual Screening Combined with Activity Evaluation In Vitro” (Molecules, 2020).

Target: T1, bovine thrombin (Bos taurus, UniProt P00735)
T1 construct: bovine thrombin and argatroban were purchased from Sigma-Aldrich; purchased Sigma-Aldrich (St. Louis, MO, USA)
Assay: Thrombin inhibitory activity assay (chromogenic substrate S-2238);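 note: microplate absorbance read-out, thrombin preincubated with test compound 5 min at 37 °C in PBS pH 7.2-7.4, inhibition relative to blank without compound after subtracting compound-only background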
Type: biochemical

[1] = IC50, Table 1, anti-thrombin, substrate S-2238 4 mg/mL
[2] = IC50 ±SD, Table 2, anti-thrombin

Compound	IC50 [1] [µM]	IC50 [2] [µM]	IC50 (IC50, thrombin inhibition, substrate 4 mg/mL) [µM]
COc1c(O)cc2oc(-c3ccc(O)c(O)c3)cc(=O)c2c1O [6-Methoxyluteolin]	> 500		
O=c1cc(-c2ccc(O)cc2)oc2cc(O)cc(O)c12 [Apigenin]	96.2 ± 10	96.2 ± 10	
O=c1cc(-c2ccccc2)oc2cc(O)cc(O)c12 [Chrysin]	> 500		
COc1cc(-c2oc3cc(O)cc(O)c3c(=O)c2O)ccc1O [Isorhamnetin]	72.2 ± 4.8	72.2 ± 4.8	< 100
